Test results: patent publication US9670250B2, “Alpha-helical peptidomimetic inhibitors and methods using same” (The Trustees of the University of Pennsylvania, priority 2012, dated 2017)

Legend:
[1] = molecular target: T1, Cathepsin K (Homo sapiens, UniProt P43235); test: in vitro fluorescence-based protease inhibition assay, cathepsin K; format: biochemical; conditions: Table 4, calpain inhibitors
T1 sequence (P43235 115-329): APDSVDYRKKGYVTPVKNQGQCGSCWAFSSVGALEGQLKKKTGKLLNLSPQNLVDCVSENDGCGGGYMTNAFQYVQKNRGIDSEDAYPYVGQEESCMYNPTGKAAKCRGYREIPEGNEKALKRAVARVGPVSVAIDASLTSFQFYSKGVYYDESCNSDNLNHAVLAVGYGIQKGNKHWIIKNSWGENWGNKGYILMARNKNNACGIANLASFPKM
Excerpt: (§1) Thus, the present invention includes a series of potent and highly specific α-helical inhibitors for papain family cysteine proteases. […] These short α-helical peptidomimetic inhibitors are modeled after the natural pro-domain sequence but contain a cysteine substitution at specific residues in i,i+4 positions, as shown in FIG. 2B. These cysteine residues are used for stabilization of the helix utilizing an appropriate linker (Muppidi, et al., 2011, Chem Commun (Camb) 47:9396-9398). After synthesis, each inhibitor was tested against its respective protease using an in vitro fluorescence-based assay. For each enzyme, at least one inhibitor was identified that is relatively potent and highly specific for its individual protease. These inhibitors can be modified or otherwise optimized to attain higher potency and selectivity through identification of key interactions between the inhibitor and the active site amino acid residues. Such optimization involves visual examination of the protease crystal structure, and substitution with either non-natural or natural amino acids to exploit possible crucial non-covalent protein ligand interactions, such as hydrogen bond, electrostatic, hydrophobic, and Van der Waals interactions.

[2] = molecular target: T2, Calpain (Calpain-1) (Homo sapiens, UniProt P07384); test: in vitro fluorescence-based protease inhibition assay, calpain; format: biochemical; conditions: Table 4, calpain inhibitors
T2 sequence (P07384 1-714): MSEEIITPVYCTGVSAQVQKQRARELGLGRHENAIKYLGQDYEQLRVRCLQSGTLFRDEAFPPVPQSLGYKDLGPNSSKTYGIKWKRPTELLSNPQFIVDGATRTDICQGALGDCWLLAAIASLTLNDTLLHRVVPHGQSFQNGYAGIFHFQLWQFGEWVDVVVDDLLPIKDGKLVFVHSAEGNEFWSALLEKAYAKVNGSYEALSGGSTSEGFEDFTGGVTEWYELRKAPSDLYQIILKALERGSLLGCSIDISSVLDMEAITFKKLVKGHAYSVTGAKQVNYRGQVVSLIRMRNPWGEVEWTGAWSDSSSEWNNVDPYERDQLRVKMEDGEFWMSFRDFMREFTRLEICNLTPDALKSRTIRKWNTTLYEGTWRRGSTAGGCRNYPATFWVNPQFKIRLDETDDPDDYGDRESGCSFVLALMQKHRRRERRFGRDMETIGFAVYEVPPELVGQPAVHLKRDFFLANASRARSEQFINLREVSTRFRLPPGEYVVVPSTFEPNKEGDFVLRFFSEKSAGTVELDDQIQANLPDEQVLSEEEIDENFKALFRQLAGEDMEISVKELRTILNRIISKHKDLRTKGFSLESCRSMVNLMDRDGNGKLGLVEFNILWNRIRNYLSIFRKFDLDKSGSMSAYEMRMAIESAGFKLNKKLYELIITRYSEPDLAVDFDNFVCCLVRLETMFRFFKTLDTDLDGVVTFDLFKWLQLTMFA
T2 sequence (P04632 1-268 partner): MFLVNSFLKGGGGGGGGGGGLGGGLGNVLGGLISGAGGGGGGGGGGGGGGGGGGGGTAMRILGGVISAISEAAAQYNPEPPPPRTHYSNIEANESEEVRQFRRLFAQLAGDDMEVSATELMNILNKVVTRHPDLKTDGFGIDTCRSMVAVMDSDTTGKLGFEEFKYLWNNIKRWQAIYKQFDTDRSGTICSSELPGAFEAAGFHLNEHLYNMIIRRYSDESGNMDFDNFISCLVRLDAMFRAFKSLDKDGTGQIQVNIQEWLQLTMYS
Excerpt: as §1

Ki [1]: > 100 µM | Ki [2]: 10.7 ± 3.5 µM
SMILES: CC[C@H](C)[C@H](NC(=O)[C@H](C)NC(=O)CCN)C(=O)N1CCC[C@H]1C(=O)N1CCC[C@H]1C(=O)N[C@@H](CCCCN)C(=O)N[C@@H](Cc1ccc(O)cc1)C(=O)N[C@H]1CSCc2cccc(c2)CSC[C@@H](C(=O)O)NC(=O)[C@H](CC(C)C)NC(=O)[C@H](CC(C)C)NC(=O)[C@H](CCC(=O)O)NC1=O [compound 70]
